Results as given in patent US8431591B2, “R(−)-2-methoxy-11-hydroxyaporphine and derivatives thereof” (The McLean Hospital Corporation, priority 2007, dated 2013).

Chains of the proteins cited; added tags and fusions are not shown.
UniProt P61169, whole entry: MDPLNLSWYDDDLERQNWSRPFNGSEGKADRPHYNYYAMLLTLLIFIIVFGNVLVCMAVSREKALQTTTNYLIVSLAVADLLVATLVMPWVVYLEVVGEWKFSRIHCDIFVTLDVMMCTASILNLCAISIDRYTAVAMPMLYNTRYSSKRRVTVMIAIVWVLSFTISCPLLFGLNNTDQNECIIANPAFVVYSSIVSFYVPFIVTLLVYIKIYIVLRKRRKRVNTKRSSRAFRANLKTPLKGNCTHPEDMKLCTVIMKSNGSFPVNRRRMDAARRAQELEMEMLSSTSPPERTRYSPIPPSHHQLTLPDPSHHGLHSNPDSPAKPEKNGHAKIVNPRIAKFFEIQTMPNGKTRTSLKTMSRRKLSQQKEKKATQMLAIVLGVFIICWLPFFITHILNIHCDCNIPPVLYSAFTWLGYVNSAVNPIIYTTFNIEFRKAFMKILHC

Target: dopamine D2 receptor (Rattus norvegicus, UniProt P61169)
Assay: Radioligand competition assay, affinity at rat D2 receptors ([3H]nemonapride)
Assay type: binding
Settings: radioligand [3H]nemonapride

`CN1CCc2cccc3c2[C@H]1Cc1ccc(O)c(O)c1-3` [Compound 1a] gave a Ki of 1.9 ± 0.5 nM.
